The source of these data is ChEMBL document CHEMBL4725348, “Rational Design and Evaluation of 6-(Pyrimidin-2-ylamino)-3,4-dihydroquinoxalin-2(1H)-ones as Polypharmacological Inhibitors of BET and Kinases” (J Med Chem, 2020).

This test has as its target T1, Aurora kinase A (Homo sapiens) (UniProt O14965).
T1 sequence (whole entry): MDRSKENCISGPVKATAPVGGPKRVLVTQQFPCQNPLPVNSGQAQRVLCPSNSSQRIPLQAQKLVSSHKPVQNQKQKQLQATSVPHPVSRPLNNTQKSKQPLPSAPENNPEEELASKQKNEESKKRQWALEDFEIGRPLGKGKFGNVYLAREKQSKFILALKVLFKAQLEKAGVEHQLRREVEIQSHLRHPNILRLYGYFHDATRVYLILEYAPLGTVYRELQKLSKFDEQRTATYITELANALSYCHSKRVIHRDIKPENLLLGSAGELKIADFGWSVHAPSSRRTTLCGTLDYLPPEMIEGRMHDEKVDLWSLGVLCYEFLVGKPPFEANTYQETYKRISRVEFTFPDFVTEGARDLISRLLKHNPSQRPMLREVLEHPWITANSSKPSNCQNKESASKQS
Description: Inhibition AuroraA (unknown origin) at 1 uM relative to control.

For the compound `CC(C)N1c2cc(Nc3nccc(-c4ccccc4)n3)ccc2N(C)C(=O)[C@H]1C`, the inhibition turned out to be 67.4%.

As a reminder, the inhibition is the change of the read-out against control, counted positive when it falls. Read a low inhibition as a weak effect.
